Patent US4925650A, “Technetium -99m complex for examining the renal function” (Mallinckrodt, Inc., priority 1988, dated 1990)

Key:
[1] = mouse, in vivo
[2] = in vivo

For “Tc-99m [LL]-N,N'-bis(1-carboxy-2-mercaptoethyl)ethylenediamine [LL-isomer]”, the “liver activity (in words)” value [1] was “very favorable characteristics” and the “renogram compared with Tc99m-MAG3 (in words)” value [2] was “approximately identical to the renogram obtained with Tc99m-MAG3”.
